In ChEMBL document CHEMBL2040829, “Highly regioselective synthesis of N-3 organophosphorous derivatives of 3,4-dihydropyrimidin-2(1H)-ones and their calcium channel binding studies” (Eur J Med Chem, 2012):

Species on record: Sus scrofa
Test: Inhibition of calcium channel in pig carotid artery assessed as relaxation of KCl-induced vascular smooth muscle contraction at 0.001 to 10 uM
COC(=O)C1=C(C)NC(=O)N(P(N)(N)=O)C1C (stereo not drawn) gave an inhibition of 0%. CCOC(=O)C1=C(C)NC(=O)N(P(N)(N)=O)C1C (stereo not drawn) showed an inhibition of 0%. CCOC(=O)C1=C(C)NC(=O)N(P(N)(N)=O)C1c1ccc(OC)cc1 (stereo not drawn) showed an inhibition of 0%. CCCCNP(=O)(NCCCC)N1C(=O)NC(C)=C(C(=O)OCC)C1c1ccccc1 (stereo not drawn) gave an inhibition of 0%. For CCOC(=O)C1=C(C)NC(=O)N(P(N)(N)=O)C1c1ccccc1 (stereo not drawn), the inhibition was 0%. With CCOC(=O)C1=C(C)NC(=O)N(P2(=O)NCCCO2)C1c1ccccc1 (stereo not drawn) the inhibition was 0%. For CCOC(=O)C1=C(C)NC(=O)N(P(N)(N)=O)C1, the inhibition was 0%. Compound CCOC(=O)C1=C(C)NC(=O)N(P2(=O)NCCCN2)C1C (stereo not drawn) has an inhibition of 0%. CCOC(=O)C1=C(C)NC(=O)N(P(=O)(NCc2ccccc2)NCc2ccccc2)C1c1ccccc1 (stereo not drawn) was tested, and the inhibition was 0%. Work on CCOC(=O)C1=C(C)NC(=O)N(P2(=O)NCCCCN2)C1c1ccccc1 (stereo not drawn) yielded an inhibition of 0%. Compound COC(=O)C1=C(C)NC(=O)N(P(N)(N)=O)C1c1ccccc1 (stereo not drawn) has an inhibition of 0%. CCOC(=O)C1=C(C)NC(=O)N(P(=O)(OCC)OCC)C1c1ccccc1 (stereo not drawn) was tested, and the inhibition was 0%. CC1=C(C(=O)OC(C)C)C(c2cccc([N+](=O)[O-])c2)N(P(N)(N)=O)C(=O)N1 (stereo not drawn) showed an inhibition of 0%.
